Patent US20070032418A1, “Small-molecule inhibitors of angiogenin and rnases and in vivo and in vitro methods of using same” (Ambion, Inc, priority 2003, published 2007)

By UniProt entry, the sequences of proteins in these tests, tags left out. Residues count along the entry.
UniProt P03950, 25-147 limits assumed: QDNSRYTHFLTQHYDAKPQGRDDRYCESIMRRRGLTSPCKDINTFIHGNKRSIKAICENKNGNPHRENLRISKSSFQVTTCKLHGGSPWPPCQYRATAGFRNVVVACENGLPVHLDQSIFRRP

Molecular target: angiogenin (ANG) (Homo sapiens, UniProt P03950)
Assay: Inhibition of ANG ribonucleolytic activity, HPLC assay of oligonucleotide cleavage
Settings: inhibition of ANG-catalyzed cleavage of an RNA oligonucleotide; 20 mM Hepes, 100 mM NaCl, 37° C.; tested form: drawn as sulfonate anion, counter-ion no

O=C(Nc1ccc(/N=N/c2ccc3cc(S(=O)(=O)O)cc(S(=O)(=O)O)c3c2)cc1)c1ccc(/N=N/c2c(O)ccc3cc(S(=O)(=O)O)cc(S(=O)(=O)O)c23)cc1
Ki: 5 µM
